Assay results: patent US11618753B2 (priority 2018, dated 2023)

Chains of the proteins cited; added tags and fusions are not shown. Lines headed by an entry give the natural chain unless they say otherwise; changes in a name come on top.
UniProt O00329: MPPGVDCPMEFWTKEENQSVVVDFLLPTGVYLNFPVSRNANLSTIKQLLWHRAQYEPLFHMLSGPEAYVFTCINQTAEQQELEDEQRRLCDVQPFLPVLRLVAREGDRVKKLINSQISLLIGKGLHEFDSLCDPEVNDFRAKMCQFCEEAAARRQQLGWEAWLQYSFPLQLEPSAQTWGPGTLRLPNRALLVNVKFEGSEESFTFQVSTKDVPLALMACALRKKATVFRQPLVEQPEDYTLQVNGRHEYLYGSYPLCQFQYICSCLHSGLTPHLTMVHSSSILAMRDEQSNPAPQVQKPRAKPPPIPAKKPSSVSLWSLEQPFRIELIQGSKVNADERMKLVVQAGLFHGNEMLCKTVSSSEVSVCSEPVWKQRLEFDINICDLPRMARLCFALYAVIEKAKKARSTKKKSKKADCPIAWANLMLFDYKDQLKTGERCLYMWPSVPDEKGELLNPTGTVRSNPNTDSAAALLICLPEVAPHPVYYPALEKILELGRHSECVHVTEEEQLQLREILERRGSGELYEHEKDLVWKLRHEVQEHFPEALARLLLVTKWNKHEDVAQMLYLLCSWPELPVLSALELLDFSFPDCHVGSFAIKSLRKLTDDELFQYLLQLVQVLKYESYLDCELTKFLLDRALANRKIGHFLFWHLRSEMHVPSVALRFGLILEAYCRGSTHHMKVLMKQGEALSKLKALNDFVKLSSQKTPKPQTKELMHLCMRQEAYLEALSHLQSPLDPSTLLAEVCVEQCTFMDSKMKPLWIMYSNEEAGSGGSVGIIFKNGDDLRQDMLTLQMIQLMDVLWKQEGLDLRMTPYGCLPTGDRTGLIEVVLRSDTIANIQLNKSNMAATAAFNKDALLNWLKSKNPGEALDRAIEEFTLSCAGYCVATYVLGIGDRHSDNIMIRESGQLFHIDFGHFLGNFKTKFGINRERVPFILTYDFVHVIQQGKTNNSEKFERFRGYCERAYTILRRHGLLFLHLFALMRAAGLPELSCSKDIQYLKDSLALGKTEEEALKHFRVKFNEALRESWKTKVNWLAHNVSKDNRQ

Target: GST-tagged PIK3Cδ in complex with PIK3R1 (Homo sapiens (Human), UniProt O00329)
Assay: biochemical

Structure (SMILES) | IC50 [µM]
COc1ncc(-c2cc(CN3CCC(F)(F)CC3)c3c(N)ncnn23)cc1C(=O)N[C@@H]1CN(C(=O)OCC(F)(F)F)C[C@@H]1F [Example 1553, 2,2,2-trifluoroethyl (3R,4S)-3-(5-{4-amino-5-[(4,4-difluoropiperidin-1-yl)methyl]pyrrolo[2,1-f][1,2,4]triazin-7-yl}-2-methoxypyridine-3-amido)-4-fluoropyrrolidine-1-carboxylate] | > 15
COc1ncc(-c2cc(CN3CCC(F)(F)CC3)c3c(N)ncnn23)cc1C(=O)N[C@@H]1CN(C(=O)[C@H]2CC2(F)F)C[C@@H]1F [Example 1560, 5-{4-amino-5-[(4,4-difluoropiperidin-1-yl)methyl]pyrrolo[2,1-f][1,2,4]triazin-7-yl}-N-[(3R,4S)-1-[(1R)-2,2-difluorocyclopropanecarbonyl]-4-fluoropyrrolidin-3-yl]-2-methoxypyridine-3-carboxamide] | > 15
Cc1c(F)cc(-c2cc(CN3CC(F)(F)C3)c3c(N)ncnn23)cc1C(=O)N[C@@H]1CN(C(=O)C2CC(F)(F)C2)C[C@@H]1F [Example 1562, 5-{4-amino-5-[(3,3-difluoroazetidin-1-yl)methyl]pyrrolo[2,1-f][1,2,4]triazin-7-yl}-N-[(3R,4S)-1-(3,3-difluorocyclobutanecarbonyl)-4-fluoropyrrolidin-3-yl]-3-fluoro-2-methylbenzamide] | 5.18
Cc1c(F)cc(-c2cc(CN3CC(F)(F)C3)c3c(N)ncnn23)cc1C(=O)N[C@@H]1CN(C(=O)C2CC2(F)F)C[C@@H]1F (stereo partly drawn) [Example 1564, 5-{4-amino-5-[(3,3-difluoroazetidin-1-yl)methyl]pyrrolo[2,1-f][1,2,4]triazin-7-yl}-N-[(3R,4S)-1-(2,2-difluorocyclopropanecarbonyl)-4-fluoropyrrolidin-3-yl]-3-fluoro-2-methylbenzamide] | > 15
COc1ncc(-c2cc(C3CC3)c3c(N)ncnn23)cc1C(=O)N[C@@H]1CN(C(=O)[C@@](C)(O)C(F)(F)F)C[C@@H]1F [Example 1567, 5-{4-amino-5-cyclopropylpyrrolo[2,1-f][1,2,4]triazin-7-yl}-N-[(3R,4S)-4-fluoro-1-[(2R)-3,3,3-trifluoro-2-hydroxy-2-methylpropanoyl]pyrrolidin-3-yl]-2-methoxypyridine-3-carboxamide] | 3.17
Cc1ccc(-c2cc(CN3CCOCC3)c3c(N)ncnn23)cc1C(=O)N[C@@H]1CN(C(=O)OCC(F)(F)F)C[C@@H]1F [Example 1577, 2,2,2-trifluoroethyl (3R,4S)-3-(5-{4-amino-5-[(morpholin-4-yl)methyl]pyrrolo[2,1-f][1,2,4]triazin-7-yl}-2-methylbenzamido)-4-fluoropyrrolidine-1-carboxylate] | > 15
Cc1cc(F)c(-c2cc(CN3CCC(F)(F)CC3)c3c(N)ncnn23)cc1C(=O)N[C@@H]1CN(C(=O)C2CC(F)(F)C2)C[C@@H]1F [Example 1578, 5-{4-amino-5-[(4,4-difluoropiperidin-1-yl)methyl]pyrrolo[2,1-f][1,2,4]triazin-7-yl}-N-[(3R,4S)-1-(3,3-difluorocyclobutanecarbonyl)-4-fluoropyrrolidin-3-yl]-4-fluoro-2-methylbenzamide] | > 15
COc1ncc(-c2cc(CN3CCC(F)(F)C3)c3c(N)ncnn23)cc1C(=O)N[C@@H]1CN(C(=O)C2CC(F)(F)C2)C[C@@H]1F [Example 1581, 5-{4-amino-5-[(3,3-difluoropyrrolidin-1-yl)methyl]pyrrolo[2,1-f][1,2,4]triazin-7-yl}-N-[(3R,4S)-1-(3,3-difluorocyclobutanecarbonyl)-4-fluoropyrrolidin-3-yl]-2-methoxypyridine-3-carboxamide] | > 15
COc1ncc(-c2ccc3c(N)ncnn23)cc1C(=O)N[C@@H]1CN(C(=O)[C@@](C)(O)C(F)(F)F)C[C@@H]1F [Example 1595, 5-{4-aminopyrrolo[2,1-f][1,2,4]triazin-7-yl}-N-[(3R,4S)-4-fluoro-1-[(2R)-3,3,3-trifluoro-2-hydroxy-2-methylpropanoyl]pyrrolidin-3-yl]-2-methoxypyridine-3-carboxamide] | > 15
